Assay results reported in patent US7365095B2, “Chromane and chromene derivatives and uses thereof” (Wyeth, priority 2005, dated 2008).

Chains of the proteins cited; added tags and fusions are not shown. Residues count along the entry.
UniProt P28335, 33-458: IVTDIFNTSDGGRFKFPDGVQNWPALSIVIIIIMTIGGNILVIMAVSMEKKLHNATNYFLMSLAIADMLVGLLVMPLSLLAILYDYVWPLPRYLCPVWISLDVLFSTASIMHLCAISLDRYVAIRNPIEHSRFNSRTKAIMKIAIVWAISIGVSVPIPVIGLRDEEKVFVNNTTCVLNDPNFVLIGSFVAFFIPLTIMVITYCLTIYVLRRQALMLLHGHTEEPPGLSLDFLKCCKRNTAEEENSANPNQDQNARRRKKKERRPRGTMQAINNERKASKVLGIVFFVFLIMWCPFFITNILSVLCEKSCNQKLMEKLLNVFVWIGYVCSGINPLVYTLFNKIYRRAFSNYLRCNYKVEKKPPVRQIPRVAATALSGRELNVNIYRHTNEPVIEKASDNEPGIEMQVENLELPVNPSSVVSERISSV

Experiments:
[1] = molecular target: T1, human 5-hydroxytryptamine-2C (h5-HT2C) receptor (Homo sapiens, UniProt P28335); assay: [125I]DOI binding to membranes of CHO cells expressing h5-HT2C receptor; conditions: reference compounds; 95% confidence interval in brackets; [125I]DOI displacement
T1 construct: expressed in transfected cells; host or cells: CHO (Chinese Hamster Ovary) cells; membrane preparation

human 5-HT2C receptor = human 5-HT2C receptor (Homo sapiens, UniProt P28335); conditions: reference compounds; calcium mobilization

## 1-(2,5-dimethoxy-4-iodophenyl)isopropylamine [DOI, reference compound]
[1]
  Ki: 6.2 nM
Human 5-HT2C receptor
  EC50: 0.5 nM
